Reference: patent US11548915B2, “Composition for overcoming resistance to EGFR-targeting agent” (Pinetree Therapeutics, Inc., priority 2016, dated 2023)

Legend:
[1] = test system: Ctx^R pancreatic cancer cell lines; assay: MTT cell proliferation after NRP1, integrin-β1 or cMet siRNA; conditions: NRP1 siRNA; 2 μM, 48 hours
[2] = test system: BxPC-3; assay: MTT cell proliferation assay; conditions: BxPC-3 (Ctx^R); 0, 1, 2, 4 μM twice at 48-hour intervals, total 96 hours
[3] = test system: A549; assay: WST-1 cell viability assay; conditions: A549, NRP1-expressing; 0, 1, 2, and 4 μM, 48 hours
[4] = test system: Ctx^R SW1990 cells expressing no NRP1; assay: Western blot of signal inhibitory effects; conditions: 2 μM, 24 hours
[5] = test system: SW1990; assay: MTT cell proliferation assay; conditions: SW1990 (Ctx^R, expressing no NRP1); 0, 1, 2, 4 μM twice at 48-hour intervals, total 96 hours
[6] = test system: colorectal cancer lines having resistance to Ctx due to KRas and BRaf mutations; assay: MTT cell proliferation assay, colorectal cancer; type: cell-based; conditions: 0.2 μM or 1 μM, 72 hours
[7] = test system: Ctx^R HCC44 and A549; assay: FACS analysis of endocytosis of NRP1 and integrin β3; type: cell-based; conditions: 2 μM, 15 minutes, 37° C., serum-free; FACS cell surface level
Source text: Then, the cells were washed with PBS and analyzed using the flow cytometer FACS Calibur (BD Bioscience).

[8] = test system: H522; assay: WST-1 cell viability assay; conditions: H522, expressing no NRP1; 0, 1, 2, and 4 μM, 48 hours
[9] = test system: Ctx^R PANC-1 xenograft; assay: In vivo tumor growth inhibition, xenograft; conditions: intravenous, compared to the control PBS
[10] = test system: BxPC-3; assay: Annexin V-FITC apoptosis assay (FACS); conditions: BxPC-3 (Ctx^R); 4 μM, 48 hours
[11] = test system: Ctx^S AsPC-1 xenograft; assay: In vivo tumor growth inhibition, xenograft; conditions: intravenous
[12] = test system: Miapaca-2; assay: MTT cell proliferation assay; conditions: Miapaca-2 (Ctx^S); 0, 1, 2, 4 μM twice at 48-hour intervals, total 96 hours
[13] = test system: PANC-1; assay: Annexin V-FITC apoptosis assay (FACS); conditions: PANC-1 (Ctx^R); 4 μM, 48 hours
[14] = test system: Ctx^R BxPC-3 xenograft; assay: In vivo tumor growth inhibition, xenograft; conditions: intravenous, compared to the control PBS
[15] = test system: H441; assay: WST-1 cell viability assay; conditions: H441, NRP1-expressing; 0, 1, 2, and 4 μM, 48 hours
[16] = test system: AsPC-1; assay: MTT cell proliferation assay; conditions: AsPC-1 (Ctx^S); 0, 1, 2, 4 μM twice at 48-hour intervals, total 96 hours
[17] = test system: tumor tissues of xenograft mice; assay: Immunohistochemistry of dissected tumor tissue (Ki-67, TUNEL); type: in vivo, BALB/c nude mice; conditions: tumor dissected 5 hours after last administration
Protocol: The dissected tumor tissue was fixed with 4% paraformaldehyde at 4° C. for 24 hours, and kept in 30% sucrose buffer at 4° C. for 24 hours. […] In addition, to examine apoptosis, the tumor tissue was stained with DeadEnd™ Colorimetric TUNEL System (Promega), and the nucleus was stained (blue fluorescence) with Hoechst 33342, followed by confocal microscopic observation.

[18] = test system: Calu-1; assay: WST-1 cell viability assay; conditions: Calu-1, NRP1-expressing; 0, 1, 2, and 4 μM, 48 hours
[19] = test system: Miapaca-2; assay: Annexin V-FITC apoptosis assay (FACS); conditions: Miapaca-2 (Ctx^S); 4 μM, 48 hours
[20] = test system: Capan-2; assay: MTT cell proliferation assay; conditions: Capan-2 (Ctx^R); 0, 1, 2, 4 μM twice at 48-hour intervals, total 96 hours
[21] = test system: phosphorylation of FAK, Src and Akt in Ctx^R tumor tissue; assay: Western blot on dissected tumor tissues; conditions: Ctx^R tumor dissected 5 hours after last administration
[22] = test system: HCC2108; assay: WST-1 cell viability assay; conditions: HCC2108, expressing no NRP1; 0, 1, 2, and 4 μM, 48 hours
[23] = test system: H1975; assay: WST-1 cell viability assay; conditions: H1975, NRP1-expressing; 0, 1, 2, and 4 μM, 48 hours
[24] = test system: PANC-1; assay: MTT cell proliferation assay; conditions: PANC-1 (Ctx^R); 0, 1, 2, 4 μM twice at 48-hour intervals, total 96 hours
[25] = test system: H2009; assay: WST-1 cell viability assay; conditions: H2009, NRP1-expressing; 0, 1, 2, and 4 μM, 48 hours
[26] = Mouse weight during xenograft experiments; conditions: BxPC-3, PANC-1 and AsPC-1 xenograft mice; compared to PBS
[27] = test system: AsPC-1; assay: Annexin V-FITC apoptosis assay (FACS); conditions: AsPC-1 (Ctx^S); 4 μM, 48 hours
[28] = test system: H1299; assay: WST-1 cell viability assay; conditions: H1299, NRP1-expressing; 0, 1, 2, and 4 μM, 48 hours
[29] = test system: H358; assay: WST-1 cell viability assay; conditions: H358, NRP1-expressing; 0, 1, 2, and 4 μM, 48 hours
[30] = test system: Ctx^R lung cancer cell lines; assay: WST-1 cell viability after NRP1 siRNA; type: cell-based; conditions: 2 μM, 48 hours
[31] = test system: Ctx^R BxPC-3 and PANC-1; assay: Cell adhesion assay to fibronectin (FN); conditions: pretreated with 100 nM at 37° C. for 30 minutes
[32] = test system: HCC44; assay: WST-1 cell viability assay; conditions: HCC44, NRP1-expressing; 0, 1, 2, and 4 μM, 48 hours
[33] = test system: Ctx^R BxPC-3 and PANC-1; assay: FACS analysis of receptor endocytosis; conditions: 2 μM, 0-60 min, 37° C., serum-free; FACS cell surface level
[34] = test system: H460; assay: WST-1 cell viability assay; conditions: H460, expressing no NRP1; 0, 1, 2, and 4 μM, 48 hours
[35] = test system: SK-LU-1; assay: WST-1 cell viability assay; conditions: SK-LU-1, NRP1-expressing; 0, 1, 2, and 4 μM, 48 hours
[36] = test system: Calu-3; assay: WST-1 cell viability assay; conditions: Calu-3, NRP1-expressing; 0, 1, 2, and 4 μM, 48 hours

Ctx-TPP11: NRP1-binding TPP11 peptide fused to C-terminus of Ctx heavy chain by (G4S)3 linker; heavy chain SEQ ID NO: 4, light chain SEQ ID NO: 8
cell growth inhibitory ability when expression of NRP1 is inhibited [1]: disappeared
cell growth inhibition (MTT) [2]: showed cell growth inhibition
cell growth inhibitory activity (WST-1) [3]: showed cell growth inhibitory activity
signal inhibitory effects (Western blot) [4]: did not appear
cell growth inhibition (MTT) [5]: showed no effect
overcoming resistance to Ctx (cell proliferation, MTT) [6]: did not overcome the resistance
endocytosis of NRP1 [7]: increased the endocytosis of NRP1
endocytosis of integrin β3 [7]: increased the endocytosis of integrin β3
cell growth inhibitory activity (WST-1) [8]: showed no activity
tumor growth (tumor volume, tumor weight) [9]: inhibited the tumor growth
apoptosis (annexin V-FITC) [10]: induced apoptosis
tumor growth inhibitory activity [11]: similar
cell growth inhibition (MTT) [12]: showed the same cell growth inhibitory ability
apoptosis (annexin V-FITC) [13]: induced apoptosis
tumor growth (tumor volume, tumor weight) [14]: inhibited the tumor growth
cell growth inhibitory activity (WST-1) [15]: showed cell growth inhibitory activity
cell growth inhibition (MTT) [16]: showed the same cell growth inhibitory ability
apoptotic marker TUNEL in tumor tissue [17]: an increased amount of the apoptotic marker
growth marker Ki-67 in tumor tissue ([17]; IHC): a decreased amount of the growth marker
cell growth inhibitory activity (WST-1) [18]: showed cell growth inhibitory activity
apoptosis (annexin V-FITC) [19]: induced apoptosis in the same manner
cell growth inhibition (MTT) [20]: showed cell growth inhibition
phosphorylation of FAK, Src and Akt in tumor tissue [21]: inhibited the phosphorylation of FAK, Src and Akt
cell growth inhibitory activity (WST-1) [22]: showed no activity
cell growth inhibitory activity (WST-1) [23]: showed the same inhibitory activity against cell growth
cell growth inhibition (MTT) [24]: showed cell growth inhibition
cell growth inhibitory activity (WST-1) [25]: showed cell growth inhibitory activity
change in the weight of the mice (toxicity) [26]: little or no change in the weight of the mice
apoptosis (annexin V-FITC) [27]: induced apoptosis in the same manner
cell growth inhibitory activity (WST-1) [28]: showed cell growth inhibitory activity
cell growth inhibitory activity (WST-1) [29]: showed cell growth inhibitory activity
cell growth inhibitory activity when expression of NRP1 is inhibited [30]: disappeared
adhesion of cells to FN [31]: reduced the adhesion of Ctx^R cells to FN
cell growth inhibitory activity (WST-1) [32]: showed cell growth inhibitory activity
endocytosis of EGFR [33]: increased the endocytosis of EGFR
endocytosis of NRP1 [33]: increased the endocytosis of NRP1
endocytosis of active integrin β1 [33]: increased the endocytosis of active integrin β1
cell growth inhibitory activity (WST-1) [34]: showed no activity
cell growth inhibitory activity (WST-1) [35]: showed cell growth inhibitory activity
cell growth inhibitory activity (WST-1) [36]: showed the same inhibitory activity against cell growth
